From PubChem BioAssay (Tox21)
The entries are a selection whose mix differs from that of the whole data set. Inconclusive results are not listed. Active and inactive are the calls of the source. Unless noted, the call rests on the fitted dose curve; in most records, active means well fitted curve in the direction sought with a large enough effect in the repeat runs; inconclusive means weak or mixed curves; inactive means no such curve, though single readings can be large; an effect the other way counts as inactive or inconclusive.

Sequences of proteins named here, by UniProt entry; tags and fusion partners are left off.
UniProt P11511, whole entry: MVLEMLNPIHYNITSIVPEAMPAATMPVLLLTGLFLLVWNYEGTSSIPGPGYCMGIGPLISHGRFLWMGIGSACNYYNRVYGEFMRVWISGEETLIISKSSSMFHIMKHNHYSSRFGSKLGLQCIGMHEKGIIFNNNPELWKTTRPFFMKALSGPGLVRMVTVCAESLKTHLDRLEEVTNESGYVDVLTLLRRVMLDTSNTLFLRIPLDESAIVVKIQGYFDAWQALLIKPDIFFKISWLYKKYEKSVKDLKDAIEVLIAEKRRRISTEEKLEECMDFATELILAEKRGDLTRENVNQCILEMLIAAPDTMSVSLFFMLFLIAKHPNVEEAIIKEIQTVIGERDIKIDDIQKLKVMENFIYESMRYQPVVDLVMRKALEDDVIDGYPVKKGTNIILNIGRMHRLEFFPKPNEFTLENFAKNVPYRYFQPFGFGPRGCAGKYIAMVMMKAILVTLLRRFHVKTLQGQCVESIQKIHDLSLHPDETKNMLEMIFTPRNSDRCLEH
UniProt Q14994, whole entry: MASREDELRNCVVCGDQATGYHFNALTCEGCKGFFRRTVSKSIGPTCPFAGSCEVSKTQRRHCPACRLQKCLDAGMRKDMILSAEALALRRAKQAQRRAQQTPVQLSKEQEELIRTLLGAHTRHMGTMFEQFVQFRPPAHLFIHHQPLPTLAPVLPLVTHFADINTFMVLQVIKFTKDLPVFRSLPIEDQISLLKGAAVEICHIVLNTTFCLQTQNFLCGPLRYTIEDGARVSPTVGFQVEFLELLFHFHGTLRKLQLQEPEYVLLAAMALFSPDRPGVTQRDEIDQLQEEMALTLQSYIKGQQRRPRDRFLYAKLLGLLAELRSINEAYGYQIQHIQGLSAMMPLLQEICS

Experiments:
[1] = qHTS assay for small molecule agonists of the p53 signaling pathway - cell viability (AID 651633; calls by dose curve; further: nearly all actives have a fitted effect of over 30% in size)
How it was run: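 p53RE-bla cells were treated with compound for 16 hours at 37 C. Cytotoxicity was then measured as CellTiter-Glo luminescence after 30 min at room temperature.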

[2] = qHTS assay for small molecules that induce genotoxicity in human embryonic kidney cells expressing luciferase-tagged ATAD5 - cell viability (AID 651634; calls by dose curve; further: nearly all actives have a fitted effect of over 25% in size); details: HEK293T ATAD5-luc cells viability, CellTiter-Fluor, 15.5 h
How it was run: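 Cytotoxicity counter-readout: after 15.5 hr compound treatment at 37C, live-cell protease activity in ATAD5-luciferase HEK293T cells measured by CellTiter-Fluor fluorescence, 30 min development at 37C.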

[3] = qHTS assay for small molecule disruptors of the mitochondrial membrane potential - cell viability (AID 720634; calls by dose curve; further: nearly all actives have a fitted effect of over 20% in size); details: HepG2 viability, ATP luminescence (CellTiter-Glo), 1 h
How it was run: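 Cytotoxicity was quantified from ATP content by CellTiter-Glo luminescence in the same wells as the MMP dye read-out. HepG2 (2,000 cells/well) were plated overnight and exposed to compounds for 1 hr at 37 C.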

[4] = qHTS assay for small molecule disruptors of the mitochondrial membrane potential (AID 720635); details: HepG2 mitochondrial membrane potential, Mito-MPS dye ratio
How it was run: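 HepG2 cells exposed to compound 1 hr at 37C, then Mito-MPS dye 30 min. Ratio read of aggregate (540/590 nm) versus monomer (490/535 nm) fluorescence.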

[5] = qHTS assay to identify small molecule antagonists of the glucocorticoid receptor (GR) signaling pathway - cell viability counter screen (AID 720693); further: nearly all actives have a fitted effect of over 55% in size
[6] = qHTS assay to identify small molecule antagonists of the androgen receptor (AR) signaling pathway - cell viability counter screen (AID 743033; further: nearly all actives have a fitted effect of over 45% in size); details: AR-bla HEK293 viability, CellTiter-Glo luminescence, 16 h
[7] = qHTS assay to identify small molecule antagonists of the androgen receptor (AR) signaling pathway using the MDA cell line - cell viability counter screen (AID 743041; further: nearly all actives have a fitted effect of over 45% in size); details: MDA-kb2 viability, CellTiter-Fluor, 16 h; cells co-treated with R1881 androgen agonist
How it was run: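 Compound exposure lasted 16 h at 37C in MDA-kb2 AR-luc cells stimulated with R1881. Protease-based CellTiter-Fluor reagent was applied for the final 30 min and fluorescence measured.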

[8] = qHTS assay to identify small molecule antagonists of the thyroid receptor (TR) signaling pathway - cell viability counter screen (AID 743064); details: GH3.TRE-Luc viability, CellTiter-Fluor, 24 h; further: nearly all actives have a fitted effect of over 50% in size
How it was run: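 Same-well viability check: GH3.TRE-Luc cells stimulated with 1 nM T3 alongside test compound for 23.5 h, followed by CellTiter-Fluor fluorescence.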

[9] = qHTS assay to identify small molecule antagonists of the estrogen receptor alpha (ER-alpha) signaling pathway using the BG1 cell line - cell viability counter screen (AID 743081);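 further: compound given together with 17beta-estradiol as the ER stimulus; nearly all actives have a fitted effect of over 45% in size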
Aromatase (Homo sapiens) = Aromatase (Homo sapiens) (UniProt P11511); experiment: qHTS assay to identify aromatase inhibitors (AID 743083); further: nearly all actives have a fitted effect of over 55% in size
[10] = qHTS assay to identify aromatase inhibitors - cell viability counter screen (AID 743084);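 further: cells stimulated with testosterone during compound exposure; nearly all actives have a fitted effect of over 55% in size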
[11] = qHTS assay to identify small molecule that activate the aryl hydrocarbon receptor (AhR) signaling pathway - cell viability counter screen (AID 743086); details: HepG2-AhR-luc viability, CellTiter-Fluor, 24 h; further: nearly all actives have a fitted effect of over 45% in size
How it was run: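 HepG2-AhR-luc (HG2L7.5c1) cells, 4000/well, treated 24 h at 37 C with compound; viability measured as CellTiter-Fluor fluorescence after 30 min in the same wells as the luciferase read.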

[12] = qHTS assay to identify small molecule antagonists of the peroxisome proliferator-activated receptor gamma (PPARg) signaling pathway - cell viability counter screen (AID 743194); further: nearly all actives have a fitted effect of over 55% in size
How it was run: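 Cytotoxicity counter screen in PPARg-bla HEK293H cells, same wells as reporter assay. Compounds plus 50 nM rosiglitazone (final) for 17 h at 37 C, then viability read by CellTiter-Glo luminescence.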

[13] = qHTS assay for small molecule agonists of the antioxidant response element (ARE) signaling pathway - cell viability counter screen (AID 743203; calls by dose curve; further: nearly all actives have a fitted effect of over 55% in size); details: ARE-bla HepG2 viability, CellTiter-Glo luminescence, 16 h
How it was run: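 Viability counter screen: CellTiter-Glo luminescence, read after 30 min at room temperature, in ARE-bla HepG2 wells. Compound exposure lasted 16 h at 37C/5% CO2, following a 5 h pre-incubation of the cells after plating.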

[14] = qHTS assay for small molecule activators of the heat shock response signaling pathway - cell viability counter screen (AID 743209); details: HSE-bla HeLa viability, CellTiter-Glo luminescence, 5 h; further: nearly all actives have a fitted effect of over 50% in size
How it was run: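 Cytotoxicity counter screen run in the same wells as the heat-shock bla reporter assay: HeLa HSE-bla cells, 5 h compound exposure at 37 C, viability read by CellTiter-Glo luminescence.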

[15] = qHTS assay to identify small molecule agonists of the peroxisome proliferator-activated receptor delta (PPARd) signaling pathway - cell viability counter screen (AID 743211); further: nearly all actives have a fitted effect of over 55% in size
How it was run: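 Multiplexed format: after the 2 h room-temperature LiveBLAzer B/G FRET step, CellTiter-Glo was added to the same wells. Luminescence after 30 min gave cell viability; compound exposure was 17 h at 37C.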

[16] = qHTS assay to identify small molecule antagonists of the peroxisome proliferator-activated receptor delta (PPARd) signaling pathway - cell viability counter screen (AID 743213); details: PPARd-bla HEK293H viability, CellTiter-Glo luminescence, 17 h; further: nearly all actives have a fitted effect of over 50% in size
How it was run: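 Agonist-stimulated (L165041, 300 nM final) HEK293H PPARd UAS-bla cells are exposed to compounds for 17 h at 37 C, and ATP-based luminescence (CellTiter-Glo) from the same wells reports cytotoxicity.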

[17] = qHTS assay to identify small molecule agonists of the farnesoid-X-receptor (FXR) signaling pathway - cell viability counter screen (AID 743218); details: FXR-bla HEK293T viability, CellTiter-Glo luminescence, 16 h; further: nearly all actives have a fitted effect of over 45% in size
How it was run: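 Viability counter screen in the same wells: CellTiter-Glo luminescence, 30 min room-temperature incubation, measured after the beta-lactamase read. Cells were GeneBLAzer FXR-UAS-bla HEK 293T, compound-treated 16 h at 37C.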

[18] = qHTS assay to identify small molecule antagonists of the farnesoid-X-receptor (FXR) signaling pathway - cell viability counter screen (AID 743221; active means well fitted cell-killing curve with a large enough effect in the repeat runs, not every such curve was filed as active; further: nearly all actives have a fitted effect of over 50% in size); details: FXR-bla HEK293T viability, CellTiter-Glo luminescence, 16 h
How it was run: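 CellTiter-Glo, 30 min RT, luminescence; same wells as the LiveBLAzer FRET read. Cells: FXR-UAS-bla HEK 293T. Treatment: compound with chenodeoxycholic acid 50 uM final, 16 h at 37 C.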

[19] = qHTS assay to identify small molecule agonists of the vitamin D receptor (VDR) signaling pathway - cell viability counter screen (AID 743224); further: nearly all actives have a fitted effect of over 50% in size
How it was run: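 Counter screen run in the same wells as the VDR-bla reporter assay: CellTiter-Glo luminescence, 30 min at room temperature, after 16 h compound treatment at 37C of cells pre-plated for 4 h.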

[20] = qHTS assay to identify small molecule antagonists of the vitamin D receptor (VDR) signaling pathway - cell viability counter screen (AID 743225); details: VDR-bla HEK293T viability, CellTiter-Glo luminescence, 16 h; further: nearly all actives have a fitted effect of over 50% in size
How it was run: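 Cytotoxicity toward the VDR-bla HEK 293T line was scored by ATP-based CellTiter-Glo luminescence, read in the wells already used for the beta-lactamase readout after 16 h compound treatment under 3 nM 1-alpha,25-dihydroxyvitamin D3 stimulation.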

[21] = qHTS assay to identify small molecule agonists of the NFkB signaling pathway - cell viability counter screen (AID 1159515; calls by dose curve; further: nearly all actives have a fitted effect of over 55% in size); details: NFkB-bla ME-180 viability, CellTiter-Glo luminescence, 5 h
How it was run: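 Read by CellTiter-Glo luminescence (30 min, room temperature) in the wells also used for the beta-lactamase FRET read. ME-180 NFkB-bla cells at 2,000 per well were plated overnight, then exposed to compound for 5 hr at 37 C.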

[22] = qHTS assay to identify small molecule antagonists of the retinoid-related orphan receptor gamma (ROR-gamma) signaling pathway - cell viability counter screen (AID 1159520); details: Tet-on RORgamma CHO cells viability, ATP luminescence, 16 h; further: nearly all actives have a fitted effect of over 50% in size
How it was run: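 Tet-on ROR gamma CHO cells were given compounds for 2 hr, then doxycycline hyclate at 1 uM final, and incubated 16 hr at 37 C. Viability was measured as ATP content by CellTiter-Glo luminescence.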

[23] = molecular target: Nuclear receptor ROR-gamma (Homo sapiens) (UniProt P51449); experiment: qHTS assay to identify small molecule antagonists of the retinoid-related orphan receptor gamma (ROR-gamma) signaling pathway (AID 1159521; further: nearly all actives have a fitted effect of over 50% in size); details: Tet-on RORgamma CHO cells, RORE-luciferase, 16 h
[24] = qHTS assay to identify small molecule agonists of the AP-1 signaling pathway - cell viability counter screen (AID 1159525; calls by dose curve; further: nearly all actives have a fitted effect of over 55% in size); details: ME-180 (cervical carcinoma) AP-1-bla cells viability, ATP luminescence, 5 h
How it was run: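 Same-well cytotoxicity counter screen of the Tox21 10K library in ME-180 cells. The readout is ATP-dependent luminescence after 5 h compound treatment. Data are normalised to DMSO and tetra n-octyl ammonium bromide controls.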

[25] = qHTS assay to identify small molecule agonists of the RXR signaling pathway - cell viability counter screen (AID 1159529); details: RXR-alpha-bla HEK293T viability, CellTiter-Glo, 16 h; further: nearly all actives have a fitted effect of over 50% in size
How it was run: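 Tox21 10K compounds were tested for cytotoxicity against GeneBLAzer RXR-alpha HEK 293T cells grown in 2% charcoal-stripped FBS. Exposure lasted 16 hr at 37 C, 5% CO2; viability read by CellTiter-Glo luminescence.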

[26] = qHTS assay to identify small molecule antagonists of the retinoic acid receptor (RAR) signaling pathway (AID 1159552; further: nearly all actives have a fitted effect of over 50% in size); details: C3RL4 RARE luciferase reporter, retinol-stimulated, 6 h
How it was run: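 Overnight-plated C3RL4 reporter cells get compound, then retinol to 1 uM final; plates sit 6 hr at 37 C, 5% CO2. A luciferase reagent is added and light output recorded after 30 min at room temperature.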

[27] = qHTS assay to identify small molecule antagonists of the estrogen related receptor (ERR) signaling pathway from Tox21 library - cell viability counter screen (AID 1224834); further: nearly all actives have a fitted effect of over 30% in size
How it was run: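 CellTiter-Fluor fluorescence, read after 30 min at 37 C, measures viability of ERR cells. Cells plated at 2,000/well and incubated 6 h before pin-tool compound addition, then exposed 17.5 hours at 37 C.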

[28] = qHTS assay to identify small molecule agonists of the constitutive androstane receptor (CAR) signaling pathway - cell viability counter screen (AID 1224836); further: nearly all actives have a fitted effect of over 45% in size
How it was run: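 Fluorescence from CellTiter-Fluor indicates live cells after 23 h exposure. The human hepatoma line expresses hCAR and a CYP2B6-2.2kb reporter. Incubation medium contains 0.75 uM PK11195 (final).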

[29] = qHTS assay to identify small molecule antagonists of the constitutive androstane receptor (CAR) signaling pathway - cell viability counter screen (AID 1224837); further: nearly all actives have a fitted effect of over 45% in size
How it was run: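 Cytotoxicity counter-screen: CellTiter-Fluor fluorescence after 23 h compound exposure (15-point qHTS) in double-stable HepG2-CYP2B6-hCAR cells, with 50 nM CITCO added.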

[30] = molecular target: Nuclear receptor subfamily 1 group I member 3 (Homo sapiens) (UniProt Q14994); experiment: qHTS assay to identify small molecule antagonists of the constitutive androstane receptor (CAR) signaling pathway (AID 1224838); details: HepG2-CYP2B6-hCAR luciferase, CITCO-stimulated, 24 h;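 further: HepG2 cells stably expressing hCAR with CYP2B6 luciferase reporter stimulated by CITCO; nearly all actives have a fitted effect of over 40% in size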
[31] = qHTS assay to identify small molecule antagonists of the estrogen related receptor signaling pathway with the pleiotropic PPARgamma coactivator (PGC) from Tox21 10K library - cell viability counter screen (AID 1224840; active means well fitted cell-killing curve with a large enough effect in the repeat runs, not every such curve was filed as active; further: nearly all actives have a fitted effect of over 40% in size)
How it was run: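 Counter-screen for cytotoxicity: after 17.5 h compound exposure at 37 C, CellTiter-Fluor reagent added to PGC/ERR cells for 30 min and fluorescence read. Cells were seeded at 2,000 per well 6 h before dosing.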

Measured: Potency
Potency means the concentration at half of the fitted maximal effect.

N#CSc1ccc([N+](=O)[O-])cc1[N+](=O)[O-]
active: [1] 27.3 µM | [2] 61.1 µM | [3] 61.1 µM | [4] 13.7 µM | [5] 54.9 µM | [6] 19.5 µM | [7] 61.1 µM | [8] 13.7 µM | [9] 68.6 µM | Aromatase (Homo sapiens) 27.3 µM | [10] 21.7 µM | [11] 27.3 µM | [12] 13.8 µM | [13] 13.7 µM | [14] 19.5 µM | [15] 17.4 µM | [16] 24.5 µM | [17] 19.5 µM | [18] 15.5 µM | [19] 17.4 µM | [20] 21.9 µM | [21] 24.5 µM | [22] 15.4 µM | [23] 13.7 µM | [24] 17.4 µM | [25] 13.8 µM | [26] 24.3 µM | [27] 30.6 µM | [28] 24.3 µM | [29] 17.2 µM | [30] 13.7 µM | [31] 24.3 µM
